pIC50: −log10 of the molar value.
How the values were obtained:
[1] = target: T1, Endothelin receptor type B (Sus scrofa, UniProt P35463); assay: Ability to bind with Endothelin B receptor competitively in the presence of (125 I) endothelin using receptor binding assay.
T1 sequence (P35463 whole entry): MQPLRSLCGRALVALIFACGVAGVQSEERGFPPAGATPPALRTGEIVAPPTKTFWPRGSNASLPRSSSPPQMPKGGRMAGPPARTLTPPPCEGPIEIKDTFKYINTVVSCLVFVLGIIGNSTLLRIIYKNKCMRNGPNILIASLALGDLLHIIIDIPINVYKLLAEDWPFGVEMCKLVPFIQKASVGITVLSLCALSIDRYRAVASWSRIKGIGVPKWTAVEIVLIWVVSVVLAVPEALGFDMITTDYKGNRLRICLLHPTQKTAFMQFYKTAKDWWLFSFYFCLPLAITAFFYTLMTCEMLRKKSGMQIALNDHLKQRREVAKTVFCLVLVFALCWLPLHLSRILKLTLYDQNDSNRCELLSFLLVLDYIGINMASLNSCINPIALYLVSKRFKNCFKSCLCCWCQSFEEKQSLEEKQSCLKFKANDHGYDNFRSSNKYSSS

Protein sequences, listed by entry. Tags and fused reporters are not part of them.
UniProt Q29010, whole entry: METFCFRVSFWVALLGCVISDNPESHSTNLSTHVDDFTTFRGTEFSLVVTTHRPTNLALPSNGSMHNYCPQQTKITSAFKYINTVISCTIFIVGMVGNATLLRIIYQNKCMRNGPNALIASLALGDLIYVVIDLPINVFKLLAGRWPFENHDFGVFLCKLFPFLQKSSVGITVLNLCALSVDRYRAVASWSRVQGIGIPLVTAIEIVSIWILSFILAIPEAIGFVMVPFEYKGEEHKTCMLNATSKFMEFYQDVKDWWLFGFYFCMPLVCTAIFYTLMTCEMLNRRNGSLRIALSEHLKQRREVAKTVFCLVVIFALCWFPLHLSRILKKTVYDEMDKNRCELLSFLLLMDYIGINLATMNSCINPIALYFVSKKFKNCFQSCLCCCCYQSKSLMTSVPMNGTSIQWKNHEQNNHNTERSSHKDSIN

Endothelin-1 receptor = Endothelin-1 receptor (Sus scrofa, UniProt Q29010); assay: Ability to bind with Endothelin A receptor competitively in the presence of (125 I) endothelin using receptor binding assay.

O=C(O)C(Cc1ccc(O)cc1)N(Cc1ccccc1-c1ccccc1)C(=O)/C=C/c1ccc2c(c1)OCO2 (configuration not stated)
pIC50 [1]: 5.10 | pIC50 (Endothelin-1 receptor): 5.10

Reference: ChEMBL document CHEMBL1134199, “Peptoids as endothelin receptor antagonists” (Bioorg Med Chem Lett, 2001)
